Each structure is given as a SMILES string.

Amino acid sequences for entries named in this document (tags omitted). A change or cut given only in a name is not applied to a line headed by its entry.
UniProt P28074: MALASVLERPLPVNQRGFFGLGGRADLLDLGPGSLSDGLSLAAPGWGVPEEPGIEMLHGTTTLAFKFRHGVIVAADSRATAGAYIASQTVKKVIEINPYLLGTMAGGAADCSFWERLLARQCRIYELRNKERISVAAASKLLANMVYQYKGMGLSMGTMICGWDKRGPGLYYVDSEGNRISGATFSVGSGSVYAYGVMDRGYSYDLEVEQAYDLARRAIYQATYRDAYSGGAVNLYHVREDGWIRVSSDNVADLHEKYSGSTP

The test addresses Proteasome subunit beta type-5 (Homo sapiens, UniProt P28074). Briefly: Inhibition of beta5 proteasome (unknown origin).

The compound `CC(C)C[C@H](NC(=O)CNC(=O)c1cc(Cl)ccc1Cl)B(O)O` came in with an IC50 of 3.4 nM. That is a single-digit nanomolar value.

As a reminder, the IC50 is the concentration at which inhibition is half-maximal. Low readings indicate greater potency in that assay, high ones weaker potency in that assay.

(Values after BindingDB's records for doi:10.1021/jm00213a022 (Sichuan University, 2021).)
